## Ab-14 heavy chain CDR variants: yeast mating affinities

Data: MIT Lincoln Laboratory AlphaSeq set, Engelhart et al. 2022, doi:10.1038/s41597-022-01779-4, as distributed in FLAb.

The target is the same throughout: PDVDLGDISGINAS, from the HR2 region of SARS-CoV-2 spike.

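The library (AAYL49) carries one to three amino acid substitutions per variant, with no insertions or deletions. The scFvs were displayed on barcoded MATa yeast, the peptide on MATalpha yeast. Binding brings cells together so that they mate, and sequencing counts the barcode pairs among the diploids. Each replicate has its own calibration line, from reference interactions of the BCL2 family. The assay was run in three technical replicates.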

Ab-14 is the parent antibody, in scFv form: VH, then three GGGGS repeats, then VL. The light chain is unchanged in all variants.
VH: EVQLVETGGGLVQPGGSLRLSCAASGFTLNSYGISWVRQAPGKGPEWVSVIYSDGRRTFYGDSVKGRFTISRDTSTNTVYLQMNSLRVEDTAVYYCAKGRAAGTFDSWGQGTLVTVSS
VL: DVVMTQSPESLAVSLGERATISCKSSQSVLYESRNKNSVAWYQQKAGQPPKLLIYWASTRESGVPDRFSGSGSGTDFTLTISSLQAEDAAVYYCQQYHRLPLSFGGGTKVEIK

Sequences are complete VH domains.
Values are log10 of the apparent Kd in nM; lower means stronger binding.
"ND" means that the variant was in the library but no mating with the target was seen in that replicate; the authors take this as a sign of poor binding, and no number exists.
Parent in this assay: reference entry 0.65, copy in this library 4.11 (one replicate of three).

VH | log10 Kd (nM) by replicate | control signals
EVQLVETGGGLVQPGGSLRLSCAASGFTLLSYGISWVRQAPGKGPEWVSAIYSDGRRTNYGDSVKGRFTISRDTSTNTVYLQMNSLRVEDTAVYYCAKGRAAGTFDSWGQGTLVTVSS | ND ND ND | 2/9 (3.73)
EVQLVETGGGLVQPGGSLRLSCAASGFTLNSYEISWVRQAPGKGPEWVSVIYSDGRRTFYGDSVKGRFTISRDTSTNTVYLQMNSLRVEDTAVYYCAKGQAAGTFDMWGQGTLVTVSS | ND ND ND | 0/9
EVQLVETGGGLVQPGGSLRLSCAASGFTLNSYGISWVRQAPGKGPEWVSVIYMDGRRTFQGDSVKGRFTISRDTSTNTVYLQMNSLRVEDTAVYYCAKGRAAGTFDRWGQGTLVTVSS | ND ND ND | 0/9
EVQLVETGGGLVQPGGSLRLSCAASGFTLNSYGISWVRQAPGKGPEWVSVIYFDGRRTFYGDHLKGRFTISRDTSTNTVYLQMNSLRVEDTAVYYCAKGRAAGTFDSWGQGTLVTVSS | 5.62 4.86 5.52 | 2/9 (3.59)
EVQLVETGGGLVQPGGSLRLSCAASGFTLNAYGESWVRQAPGKGPEWVSVIYSDGRRTFYGDSVKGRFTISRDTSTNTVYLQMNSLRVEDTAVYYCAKGRAATTFDSWGQGTLVTVSS | ND ND ND | 0/9
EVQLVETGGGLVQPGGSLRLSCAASGFTLNSYGINWVRQAPGKGPEWVSVIGSDGDRTFYGDSVKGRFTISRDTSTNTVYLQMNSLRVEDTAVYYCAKGRAAGTFDSWGQGTLVTVSS | 4.93 ND ND | 0/9
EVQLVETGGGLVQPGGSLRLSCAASGFTLNSYRIIWVRQAPGKGPEWVSVIYSKGRRTFYGDSVKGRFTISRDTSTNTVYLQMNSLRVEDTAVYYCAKGRAAGTFDSWGQGTLVTVSS | ND ND ND | 0/9
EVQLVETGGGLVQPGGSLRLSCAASGFTLNCYGISWVRQAPGKGPEWVSVIRSDGRRTFYGDSVKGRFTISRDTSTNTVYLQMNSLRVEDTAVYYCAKGRADGTFDSWGQGTLVTVSS | ND ND 5.99 | 1/9 (3.38)
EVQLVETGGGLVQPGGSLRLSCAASGFTLCSYGISWVRQAPGKGPEWVSVIYSLGRRTFYGDSVKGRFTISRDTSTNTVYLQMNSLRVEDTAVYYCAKVRAAGTFDSWGQGTLVTVSS | ND ND ND | 1/9 (4.23)
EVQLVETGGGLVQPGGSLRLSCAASGFTLNSYGISWVRQAPGKGPEWVSVIYSDGRRTFYGDSMKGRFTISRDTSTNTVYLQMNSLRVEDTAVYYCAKGLAGGTFDSWGQGTLVTVSS | ND ND ND | 1/9 (2.96)
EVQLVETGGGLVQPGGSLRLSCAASGFTLTSYGISWVRQAPGKGPEWVSVIYTDGRRTFYGDSVKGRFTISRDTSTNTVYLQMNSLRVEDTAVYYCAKGRQAGTFDSWGQGTLVTVSS | ND 1.78 1.26 | 0/9
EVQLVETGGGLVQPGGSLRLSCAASGSTLNSYGISWVRQAPGKGPEWVSVIESDGRRTFYGDSVKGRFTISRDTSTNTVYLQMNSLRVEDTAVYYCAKYRAAGTFDSWGQGTLVTVSS | ND 3.93 ND | 5/9 (3.94)
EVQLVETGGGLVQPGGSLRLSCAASGFTLNSYGIKWVRQAPGKGPEWVSYIYSDGRRTFYGDSYKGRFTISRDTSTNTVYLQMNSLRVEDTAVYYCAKGRAAGTFDSWGQGTLVTVSS | ND ND 3.85 | 3/9 (3.83)
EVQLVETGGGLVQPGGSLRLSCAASGFTLNSYGISWVRQAPGKGPEWVSVIYSCGRRTFYGDSVKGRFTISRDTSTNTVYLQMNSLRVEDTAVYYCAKNRAQGTFDSWGQGTLVTVSS | ND ND ND | 0/9
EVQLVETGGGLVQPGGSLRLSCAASGFTLNSYGISWVRQAPGKGPEWVSVIYSDGRYMFYGDSVKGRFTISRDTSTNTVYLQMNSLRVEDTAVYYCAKGRCAGTFDSWGQGTLVTVSS | ND ND ND | 0/9
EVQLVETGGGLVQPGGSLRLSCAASGFTLNSYGISWVRQAPGKGPEWVSVIYSDGRRTFYCDSVKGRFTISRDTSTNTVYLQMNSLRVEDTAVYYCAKGRAAGTDDSWGQGTLVTVSS | ND ND ND | 0/9
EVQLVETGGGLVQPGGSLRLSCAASGFTLNSYGISWVRQAPGKGPEWVSTIYSHGRRTFYGDSVKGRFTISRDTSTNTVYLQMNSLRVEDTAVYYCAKGRAAGTFGSWGQGTLVTVSS | ND ND 3.15 | 2/9 (4.38)

The first 2 variants above that were never detected:

VH | log10 Kd (nM) by replicate | control signals
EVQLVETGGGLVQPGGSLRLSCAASGFTLLSYGISWVRQAPGKGPEWVSAIYSDGRRTNYGDSVKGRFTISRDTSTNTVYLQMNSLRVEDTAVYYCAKGRAAGTFDSWGQGTLVTVSS | ND ND ND | 2/9 (3.73)
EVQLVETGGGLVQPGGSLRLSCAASGFTLNSYEISWVRQAPGKGPEWVSVIYSDGRRTFYGDSVKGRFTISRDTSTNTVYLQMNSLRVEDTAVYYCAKGQAAGTFDMWGQGTLVTVSS | ND ND ND | 0/9

Nonspecific signal, from three strains lacking the peptide, appeared in 15% of pairings of library AAYL49, centred on 4.06 (5% of these signals below 2.83); values are not corrected for it. Also given: how often the same scFv was detected with the empty control strains, with their mean in brackets.